By UniProt entry, the sequences of proteins in these tests, tags left out. Residues count along the entry.
UniProt P01584, 117-269 limits assumed: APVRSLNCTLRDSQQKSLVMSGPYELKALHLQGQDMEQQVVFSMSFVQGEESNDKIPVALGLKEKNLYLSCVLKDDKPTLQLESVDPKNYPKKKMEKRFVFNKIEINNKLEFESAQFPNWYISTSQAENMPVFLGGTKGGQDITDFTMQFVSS

According to US20230406885A1, “CYCLIC PEPTIDES FOR TRAPPING INTERLEUKIN-1 BETA” (MERCK SHARP & DOHME LLC, priority 2022, published 2023):

Target: Recombinant human IL-1β (Homo sapiens, UniProt P01584)
Test: IL-6 assay in MRC5 cells: inhibition of IL-1β induced IL-6 secretion (AlphaLISA)
Settings: read-out: MRC5 IC50; inhibition of IL-1β induced IL-6 secretion in MRC5 cells; IL-1β pre-incubated 1 hour with compound
Experimental: Procedure for IL-6 Assay in MRC5 Cells
The inhibition of IL-1β induced IL-6 secretion was evaluated in MRC5 cells. Recombinant human IL-1β (BioLegend 579404) at 2×EC80 concentration was prepared in seeding medium, EMEM (ATCC 30-2003) with 0.025% BSA (Sigma A9576), 1× penicillin/streptomycin (Gibco 15070-063), 1×NEAA (Gibco 11140-050), 1× GlutaMax (Gibco 35050-061), and 1× sodium pyruvate (Gibco 11360-070). 20 μL of IL-1β was added to a 384-well collagen-coated plate (Corning 354664) and pre-incubated at ambient temperature for 1 hour with 200 nL of compound dispensed using an ECHO 555 liquid handler. Human lung fibroblast MRC5 cells (ATCC CCL-171) were added at a density of 3000 cells/20 μL per well. […] The AlphaLISA plate was read on an EnVision multimode plate reader (Perkin Elmer model 2104) using the AlphaScreen setting (laser exc at 680 nm and emis at 570 nm). Dose response curves and IC50 values were analyzed using a 4-parameter logistic equation in Spotfire software (Tibco, Palo Alto, CA).

CC(=O)NCCOc1ccc(C[C@@H]2NC(=O)[C@H](CCc3ccc(O)cc3)NC(=O)C(C)(C)NC(=O)[C@H](CC(C)C)NC(=O)[C@H](Cc3cccc4ccccc34)NC(=O)[C@H](Cc3ccc(-c4ccc(C(=O)O)cc4)cc3)NC(=O)CNC(=O)[C@@H](C)N(C)C(=O)[C@H](CC(=O)O)NC(=O)[C@H]([C@@H](C)c3c[nH]c4cccc(Cl)c34)NC(=O)[C@@H]3C[C@@H](N)CN3C(=O)CNC(=O)[C@H](Cc3ccc(C(=O)O)cc3)NC(=O)[C@H](Cc3c[nH]c4ccccc34)NC2=O)cc1
pIC50: 9.33

pIC50: −log10 of the molar value.
